Sequences of proteins named here, by UniProt entry; tags and fusion partners are left off.
UniProt P06493, whole entry: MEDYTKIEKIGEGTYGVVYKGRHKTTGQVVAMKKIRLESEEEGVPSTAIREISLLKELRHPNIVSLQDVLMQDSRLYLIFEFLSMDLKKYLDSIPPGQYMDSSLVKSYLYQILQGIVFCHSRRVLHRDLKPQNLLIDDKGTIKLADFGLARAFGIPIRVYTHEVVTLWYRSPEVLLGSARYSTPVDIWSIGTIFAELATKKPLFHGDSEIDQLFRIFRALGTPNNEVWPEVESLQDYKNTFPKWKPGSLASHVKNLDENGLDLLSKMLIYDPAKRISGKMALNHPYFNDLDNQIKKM
UniProt P14635, whole entry partner: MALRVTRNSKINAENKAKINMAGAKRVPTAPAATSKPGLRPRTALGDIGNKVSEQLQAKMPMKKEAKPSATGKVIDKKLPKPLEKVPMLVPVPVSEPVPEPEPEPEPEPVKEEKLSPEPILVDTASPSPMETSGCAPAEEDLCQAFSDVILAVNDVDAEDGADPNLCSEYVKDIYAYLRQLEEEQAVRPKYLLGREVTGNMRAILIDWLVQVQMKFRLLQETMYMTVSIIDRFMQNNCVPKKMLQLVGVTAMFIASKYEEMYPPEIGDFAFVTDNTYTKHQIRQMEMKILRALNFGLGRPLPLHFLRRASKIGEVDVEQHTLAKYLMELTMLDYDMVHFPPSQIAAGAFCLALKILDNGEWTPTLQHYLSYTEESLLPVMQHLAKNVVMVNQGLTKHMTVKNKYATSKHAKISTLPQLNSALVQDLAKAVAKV

In US7816350B2, “Substituted [1,2,3] triazolo[4,5-D]pyrimidines as cdk inhibitors” (Institute of Experimental Botany ASCR, priority 2002, dated 2010):

What was measured:
[1] = molecular target: p34^cdc2/cyclin B (CDC2) (Homo sapiens, UniProt P06493); assay: CDK inhibition assay, p34cdc2/cyclin B kinase, histone H1 phosphorylation; conditions: read-out: CDC2 IC50
Protocol: Cyclin-dependent kinases (p34^cdc2, p33^cdk2) and cyclins (cyclin B, E) are produced in Sf9 insect cells coinfected with appropriate baculoviral constructs. The cells are harvested 68-72 hrs post infection in lysis buffer for 30 min on ice and the soluble fraction is recovered by centrifugation at 14.000 g for 10 min. The protein extract is stored at −80° C.
Lysis buffer: 50 mM Tris pH 7.4, 150 mM NaCl, 5 mM EDTA, 20 mM NaF, 1% Tween, 1 mM DTT, 0.1 mM PMSF, leupeptine, aprotonine.
To carry out experiments on kinetics under linear conditions, the final point test system for kinase activity measurement is used. The kinase is added to reaction mixture in such a way as to obtain linear activity with respect to the concentration of enzyme and with respect to time.
The p34^cdc2 and p33^cdk2 kinase inhibition determination involves the use of 1 mg/ml histone H1 (Sigma, type III-S) in the presence of 15 μM [γ-^32P]ATP ([…]) (Amersham) in a final volume of 20 μl. Kinase activity is determined at 30° C. in the kinase buffer.
Tested compounds are usually dissolved to 100 mM solutions in DMSO, final concentration of DMSO in reaction mixture never exceeds 1%. The controls contain suitable dilutions of DMSO.
After 10 min, addition 3×SDS sample buffer stops the incubations. Phosphorylated proteins are separated electrophoretically using 12.5% SDS polyacrylamide gel. The measurement of kinase activity is done using digital image analysis.
The kinase activity is expressed as a percentage of maximum activity, the apparent inhibition constants are determined by graphic analysis (FIG. 1).
Kinase buffer: 50 mM Hepes pH 7.4, 10 mM MgCl2, 5 mM EGTA, 10 mM 2-glycerolphosphate, 1 mM NaF, 1 mM DTT

[2] = molecular target: IκB-α kinase; assay: IκB-α kinase inhibitory activity, in vitro kinase assay; type: biochemical; conditions: read-out: IκB-α IC50

IC50 [1] [µM] | IC50 [2] [µM] | SMILES
31 | 75 | Cn1nnc2c(NCc3cc(O)c(Cl)cc3O)nc(NCCO)nc21
18 | 80 | Cn1nnc2c(NCc3ccc(Cl)c(O)c3O)nc(NCCO)nc21
11 | > 100 | CC[C@H](CO)Nc1nc(NCc2ccc(Cl)c(O)c2O)c2nnn(C(C)C)c2n1
10 |  | COc1ccc(CNc2nc(N[C@@H](CO)C(C)C)nc3c2nnn3C(C)C)c(O)c1O
20 | 90 | COc1ccc(CNc2nc(NCCO)nc3c2nnn3C)c(O)c1O
12 | > 100 | COc1cc(O)c(CNc2nc(N[C@@H](CO)C(C)C)nc3c2nnn3C(C)C)cc1O
